Measurements taken from patent publication EP4837900A1, “AROMATIC HYDRAZIDE DERIVATIVE AND MEDICAL USE THEREOF” (dated 2026).

Tests used:
[1] = tested on: colorectal cancer SW480 cells; assay: Inhibitory activity test on proliferation of colorectal cancer SW480 cells (CellTiter-3D-Glo); details: low-attachment 96-well U-bottom plate
Protocol: Cell proliferation viability was detected by a CellTiter-3D-Glo reagent assay. An experimental procedure was as follows: SW480 cells in a logarithmic growth phase were digested, diluted to a suitable cell density with DMEM complete medium containing 10% FBS and 1% PS, seeded into a low-attachment 96-well U-bottom plate, and cultured in 5% CO2; and then test compounds at a series of gradient concentrations were added, and the plate was incubated in a 5% CO2 incubator. After finishing the incubation, the cells were lysed and detected by using the CellTiter-3D-Glo reagent. Chemiluminescence values were measured by a microplate reader, and data were fitted by Graphpad Prism software, so as to calculate IC50 values of tested substances.

[2] = tested on: pancreatic cancer ASPC-1 cells; assay: Pharmacodynamic experiment, subcutaneous xenograft tumor model of pancreatic cancer ASPC-1 cells; details: ASPC-1 xenograft, BALB/c nude mice, 0.2 mg/kg, oral gavage, QD × 21 days
Protocol: (§1) Animal species and number: BALB/c nude mice, 6 mice in each group.
Experimental groups: blank solvent control group and compound 4-1 (0.2 mg/kg, QD × 21 days).
Establishment of animal model: pancreatic cancer ASPC-1 cells in a logarithmic growth phase were cultured in vitro and harvested, and subcutaneously inoculated into the right dorsal side of the Balb/c Nude mice, when tumors grew to about 200-300 mm^3, the tumor-bearing mice were randomly divided into groups based on tumor volume, and subsequently the animals in each group were administered with the test compound, wherein the first day of administration was defined as Day 1 of the experiment.
Drug administration route and frequency: oral gavage, once per day, for 21 consecutive days.
General state observation: observation time and frequency: once daily; observation indicators or contents: comprised, but were not limited to, local areas of administration, physical signs, general behaviors, mental states, death and other situations, and other abnormal manifestations of the animals.
Tumor volume calculation: V = 0.5 a × b^2, wherein a was a long diameter of tumor and b was a short diameter of tumor. A tumor growth inhibition rate TGI (%) was used to evaluate an anti-tumor effect of the compound. […]

[3] = Solubility test in hydrochloric acid solution at pH 1.2 (HPLC); details: hydrochloric acid solution at pH 1.2, 37°C water bath
Protocol: Test procedure: 5 mL of hydrochloric acid solution at pH 1.2 was added into a 25 mL stoppered colorimetric tube, then compound 4-1 was added, the mixture was stirred in a 37°C water bath and filtered through a polyethersulfone membrane, and a concentration of the filtrate was determined by HPLC.

[4] = tested on: lung cancer NCI-H358 cells; assay: Inhibitory activity test on proliferation of lung cancer NCI-H358 cells (CellTiter-3D-Glo); details: low-attachment 96-well U-bottom plate
Protocol: Cell proliferation viability was detected by a CellTiter-3D-Glo reagent assay. An experimental procedure was as follows: NCI-H358 cells in a logarithmic growth phase were digested and seeded into a low-attachment 96-well U-bottom plate at an appropriate density, and cultured in a cell culture incubator; and media containing test compounds at a series of gradient concentrations were added to experimental wells, while a control medium was added to a control well, and the plate was incubated in a 5% CO2 incubator. After finishing the incubation, the CellTiter-3D-Glo reagent was added to each well for lysis and detection; and chemiluminescence values were measured by a microplate reader. Data were fitted by Graphpad Prism software, so as to calculate IC50 values of tested substances.

[5] = tested on: colorectal cancer SW480 cells; assay: Pharmacodynamic experiment, subcutaneous xenograft tumor model of colorectal cancer SW480 cells; details: BALB/c nude mice, 0.2 mg/kg, oral gavage, QD × 24 days
Protocol: as §1
Experimental groups: blank solvent control group, compound 3-9 (0.2 mg/kg, QD × 24 days) and compound 4-1 (0.2 mg/kg, QD × 24 days).
Establishment of animal model: SW480 tumor cells in a logarithmic growth phase were cultured in vitro and harvested, and subcutaneously inoculated into the right dorsal side of the Balb/c Nude mice, and when tumors grew to about 180-250 mm^3, the tumor-bearing mice were randomly divided into groups. Subsequently, each group of animals were administered with the test compounds, and the first day of drug administration was defined as Day 1 of the experiment.
Drug administration route and frequency: oral gavage, once per day, for 24 consecutive days.
General state observation: the mice were observed once per day, and observation contents comprised, but were not limited to, local areas of administration, physical signs, general behaviors, mental states, death and other situations, and other abnormal manifestations of the animals.
Tumor volume calculation: V = 0.5 a × b^2, wherein a was a long diameter of tumor and b was a short diameter of tumor. Tumor growth inhibition rates TGI (%) were used to evaluate anti-tumor effects of the compounds. TGI (%) = [1 - (mean tumor volume of the treatment group at the end of drug administration - mean tumor volume of the treatment group at the start of drug administration) / (mean tumor volume of the control group at the end of drug administration - mean tumor volume of the control group at the start of drug administration)] × 100%.

IC50 [1] [nM] | IC50 [4] [nM] | Structure (SMILES) | further results
0.04 | 0.13 | [2H]C([2H])([2H])NS(=O)(=O)Nc1nccc(Cc2cc(C(=O)NNCC=C)c(Nc3ccc(I)cc3F)c(F)c2F)c1F | –
0.08 | – | C#CCNNC(=O)c1cc(Cc2ccnc(NS(=O)(=O)NC)c2F)c(F)c(F)c1Nc1ccc(I)cc1F | –
0.08 | – | CNS(=O)(=O)Nc1nccc(Cc2cc(C(=O)NNCCO)c(Nc3ccc(I)cc3F)c(F)c2F)c1F | –

The remaining lines, values behind:

Structure (SMILES) | IC50 [1] [nM] | IC50 [4] [nM] | further results
CNS(=O)(=O)Nc1nccc(Cc2cc(C(=O)NOC)c(Nc3ccc(I)cc3F)c(F)c2F)c1F | 0.24 | – | –
C=CCNNC(=O)c1cc(Cc2ccnc(NS(=O)(=O)NC)c2F)c(F)c(F)c1Nc1ccc(I)cc1F | 0.03 | 0.12 | General state of the animals during the drug administration period (diet, body weight, activity) [2]: normal diet, body weight and activity; TGI (%) [2]: +++ (tumor inhibition rate > 100%); Solubility [3]: +++ (solubility > 30 µg/mL); General state of the animals during the drug administration period (diet, body weight, activity) [5]: normal diet, body weight and activity; Tumor inhibition rate [5]: +++ (tumor inhibition rate > 90%)
CNS(=O)(=O)Nc1nccc(Cc2cc(C(=O)NN)c(Nc3ccc(I)cc3F)c(F)c2F)c1F | 0.05 | 0.15 | General state of the animals during the drug administration period (diet, body weight, activity) [5]: normal diet, body weight and activity; Tumor inhibition rate [5]: +++ (tumor inhibition rate > 90%)
[2H]C([2H])(C=C)NNC(=O)c1cc(Cc2ccnc(NS(=O)(=O)NC)c2F)c(F)c(F)c1Nc1ccc(I)cc1F | 0.03 | – | –
CNC(=O)c1cc(Cc2ccnc(NS(=O)(=O)NC)c2F)c(F)c(F)c1Nc1ccc(I)cc1F | – | 2.1 | –
